Test results from PubChem BioAssay AID588859 (National Center for Advancing Translational Sciences (NCATS), 2011).
The source calls these results inconclusive, neither active nor inactive.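 The calls were made as follows: active = clear concentration-dependent signal drop in the bead assay lacking the target, so a primary-screen artifact; inconclusive = weak, partial or single-dose response; inactive = no response, so a real primary hit.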

test: qHTS Assay for Inhibitors of BAZ2B: Hit Validation in AlphaScreen Counterscreen.; settings: AlphaScreen biotin-His6 peptide bead counterscreen, signal decrease
Description: BAZ2B (bromodomain adjacent to zinc finger domain, 2B) belongs to a family of ubiquitously expressed bromodomain containing proteins, which biological function has not yet been elucidated. […] The interaction of BAZ2B with ISWI mediated by the BAZ1 motif has recently been described. […] The protocol is based on the AlphaScreen (PerkinElmer) displacement assay developed by NCGC [5], but uses the peptide ligand Biot-H3K14Ac, a high affinity binding partner for BAZ2B, in an AlphaScreen format. Although AlphaScreen has significant advantages with its utility in a variety of epigenetic target assays, the primary screening data (linked to this assay) should be used with caution due to the prevalence of screening artifacts. […] Yasgar, et al. Compound Management for Quantitative High-Throughput Screening. […] Inglese, et al. Quantitative high-throughput screening: a titration-based approach that efficiently identifies biological activities in large chemical libraries. […]
Biotinylated-hexahistidine (PerkinElmer, Waltham, MA) will be added to 1,536-well plates in a 3microl dispense (15nM final concentration). […] Streptavidin-coated donor and nickel chelate acceptor AlphaScreen beads will be added (1microl) for final concentrations of 10 microg/ml each bead, and plates read as described above (qHTS assay) after a 30 min incubation at room temperature in the dark.

| SMILES | Potency |
| --- | --- |
| O=P(Nc1nccs1)(c1ccccc1)c1nc2ccccc2s1 (stereo unspecified) | inconclusive: 12.6 µM |
